These results are taken from US11572350B1, “Benzothia(di)azepine compounds and their use as bile acid modulators” (Albireo AB, priority 2020, dated 2023).

Protein sequences, listed by entry. Tags and fused reporters are not part of them.
UniProt Q12908, whole entry: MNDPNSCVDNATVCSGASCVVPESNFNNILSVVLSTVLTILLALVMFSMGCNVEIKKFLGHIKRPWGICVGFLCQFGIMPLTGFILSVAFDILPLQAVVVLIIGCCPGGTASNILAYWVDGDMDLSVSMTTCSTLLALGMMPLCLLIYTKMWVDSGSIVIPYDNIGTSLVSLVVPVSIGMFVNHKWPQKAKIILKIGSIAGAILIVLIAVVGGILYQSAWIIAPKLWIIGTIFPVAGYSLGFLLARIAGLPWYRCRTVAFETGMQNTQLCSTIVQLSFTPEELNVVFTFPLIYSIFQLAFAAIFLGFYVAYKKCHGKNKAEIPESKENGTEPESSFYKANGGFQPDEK
UniProt Q14973, whole entry: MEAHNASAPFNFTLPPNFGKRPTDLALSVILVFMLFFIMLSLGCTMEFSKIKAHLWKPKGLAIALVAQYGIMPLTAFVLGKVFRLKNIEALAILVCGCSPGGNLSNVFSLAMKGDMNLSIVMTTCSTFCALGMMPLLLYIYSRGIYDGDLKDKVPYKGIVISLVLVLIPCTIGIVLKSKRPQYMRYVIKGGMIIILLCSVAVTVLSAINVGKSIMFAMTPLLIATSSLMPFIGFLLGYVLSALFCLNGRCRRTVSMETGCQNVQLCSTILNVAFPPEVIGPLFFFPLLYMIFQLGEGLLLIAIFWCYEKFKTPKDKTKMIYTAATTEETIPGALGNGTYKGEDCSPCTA

Broadly, the Papp A→B is how fast a substance crosses the layer from the apical side. Low readings indicate poor permeation, high ones ready permeation. What is called Papp B→A is the apparent permeability from the basolateral to the apical side of a cell layer.

One data set addresses human IBAT (Homo sapiens, UniProt Q12908). Description: IBAT (h/m) assay: 3H-taurocholic acid uptake in human IBAT-overexpressing cells. As to conditions: read-out: hIBAT IC50, 0.25 μM 3H-taurocholic acid and 5 μM cold taurocholic acid, 20 minutes, highest test concentration 10 μM.
The target in another data set is human LBAT (Homo sapiens, UniProt Q14973). Description: LBAT (h/m) assay: 3H-taurocholic acid uptake in human LBAT-overexpressing cells. As to conditions: read-out: hLBAT IC50, 0.3 μM 3H-taurocholic acid and 7.5 μM cold taurocholic acid, 20 minutes.

`CCCCC1CN(c2ccc(F)cc2)c2cc(SCC)c(O/C=C/C(=O)O)cc2S(=O)(=O)N1` (single isomer, unassigned) [32]: the results for the IC50 on human IBAT and on human LBAT were over 10 µM and 0.315 µM, respectively.
For `CCCCC1CN(c2ccc(F)cc2)c2cc(SCC)c(O/C=C/C(=O)O)cc2S(=O)(=O)N1` (single isomer, unassigned) [31], the IC50 at human IBAT was determined as 1.45 µM. Also, the IC50 at human LBAT was determined as 0.0009 µM. In the data set with Caco-2 cells, this molecule displayed a Papp A→B of 6.3 ×10⁻⁶ cm/s and a Papp B→A of 5.7 ×10⁻⁶ cm/s.
